The values that follow are results of earlier work, collected in paper PMC10179972, “New Hybrid Tetrahydropyrrolo[3,2,1-ij]quinolin-1-ylidene-2-thioxothiazolidin-4-ones as New Inhibitors of Factor Xa and Factor XIa: Design, Synthesis, and In Silico and Experimental Evaluation” (Molecules, 2023).

Protein sequences, listed by entry. Tags and fused reporters are not part of them. Residues count along the entry.
UniProt P03951, 388-625 limits assumed: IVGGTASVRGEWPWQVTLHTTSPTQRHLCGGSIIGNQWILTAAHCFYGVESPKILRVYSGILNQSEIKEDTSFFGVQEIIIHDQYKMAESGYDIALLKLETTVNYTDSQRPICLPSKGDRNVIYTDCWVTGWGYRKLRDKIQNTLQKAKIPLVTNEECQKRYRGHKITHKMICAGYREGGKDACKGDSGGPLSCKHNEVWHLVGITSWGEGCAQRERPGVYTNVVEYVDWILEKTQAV
UniProt P03951, 19-387 partner limits assumed: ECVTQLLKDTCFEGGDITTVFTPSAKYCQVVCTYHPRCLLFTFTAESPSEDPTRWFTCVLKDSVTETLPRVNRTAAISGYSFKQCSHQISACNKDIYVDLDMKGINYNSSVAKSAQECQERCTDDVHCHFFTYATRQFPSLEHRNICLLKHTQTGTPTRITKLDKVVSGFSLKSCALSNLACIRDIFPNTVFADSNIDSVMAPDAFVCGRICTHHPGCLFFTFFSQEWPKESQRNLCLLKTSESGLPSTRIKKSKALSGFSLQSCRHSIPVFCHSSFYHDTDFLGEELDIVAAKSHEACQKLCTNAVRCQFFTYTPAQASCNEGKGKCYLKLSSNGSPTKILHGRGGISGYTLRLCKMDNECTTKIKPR

pKi: −log10 of the molar value.

The target in the data set is factor XIa (Homo sapiens, UniProt P03951). To be noted: read-out: Ki, factor XIa (Table S2, values in brackets); known actives used in validation of docking protocol; ref [1]-[6] of Table S2, column Ligand ID; cited from earlier work.

For `Nc1ccc2c(CNC(=O)[C@H](Cc3ccccc3)NC(=O)c3ccc4[nH]c(=O)cc(O)c4c3)cccc2n1` (single isomer, unassigned), the pKi is 7.22.
